Assay [1] addresses human 5-HT2A (h5-HT2A) receptor (Homo sapiens, UniProt P28223). Nature of the assay: 5-HT2A receptor functional assay (Gq-mediated calcium flux) of saliva-hydrolyzed modified indole alkaloids. The format is cell-based. The following applies: 5HT2A agonist activity, compounds hydrolyzed by treatment with human saliva.
For assay [2], the target named is human 5-HT2C (h5-HT2C) receptor (Homo sapiens, UniProt P28335). Nature of the assay: 5-HT2C receptor functional assay (Gq-mediated calcium flux) of saliva-hydrolyzed modified indole alkaloids. The following applies: 5HT2C agonist activity, compounds hydrolyzed by treatment with human saliva. The format is cell-based.

By UniProt entry, the sequences of proteins in these tests, tags left out. Residues count along the entry.
UniProt P28223, whole entry: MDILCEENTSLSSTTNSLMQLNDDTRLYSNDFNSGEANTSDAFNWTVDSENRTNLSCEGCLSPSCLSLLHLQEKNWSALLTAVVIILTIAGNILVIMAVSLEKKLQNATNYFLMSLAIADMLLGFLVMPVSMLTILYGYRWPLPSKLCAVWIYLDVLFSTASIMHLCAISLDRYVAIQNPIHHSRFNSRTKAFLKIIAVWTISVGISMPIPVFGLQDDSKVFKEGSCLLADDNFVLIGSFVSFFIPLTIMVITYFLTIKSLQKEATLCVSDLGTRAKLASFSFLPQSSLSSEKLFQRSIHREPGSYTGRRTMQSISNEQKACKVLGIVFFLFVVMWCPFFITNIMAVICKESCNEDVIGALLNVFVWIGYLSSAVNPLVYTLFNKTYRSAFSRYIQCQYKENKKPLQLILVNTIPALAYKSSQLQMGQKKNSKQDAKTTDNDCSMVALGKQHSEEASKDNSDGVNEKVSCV
UniProt P28335, 33-458 limits assumed: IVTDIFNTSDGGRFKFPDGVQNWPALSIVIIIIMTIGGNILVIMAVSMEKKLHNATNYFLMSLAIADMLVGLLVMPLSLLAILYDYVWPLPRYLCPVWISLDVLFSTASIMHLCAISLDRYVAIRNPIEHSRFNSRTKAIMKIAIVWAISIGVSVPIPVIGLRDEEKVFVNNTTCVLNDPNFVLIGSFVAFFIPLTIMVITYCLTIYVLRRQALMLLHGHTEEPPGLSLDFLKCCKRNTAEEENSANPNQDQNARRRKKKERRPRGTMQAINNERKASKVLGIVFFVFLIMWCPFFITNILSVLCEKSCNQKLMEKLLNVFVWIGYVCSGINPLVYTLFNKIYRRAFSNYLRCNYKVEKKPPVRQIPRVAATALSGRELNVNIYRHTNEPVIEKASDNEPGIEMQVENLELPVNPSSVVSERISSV

Take `CC(C)N(C)CCc1c[nH]c2cccc(O[C@H]3O[C@H](CO)[C@@H](O)[C@H](O)[C@H]3O)c12`: the entries for the “Emax % 5-HT (± SEM)” value in assay [1] (normalized to 5-HT (100%)) and in assay [2] (normalized to 5-HT (100%)) were 99.5 ± 1.0 % 5-HT and 79.2 ± 1.0 % 5-HT, respectively. Besides, the EC50 in assay [1] (read-out: EC50 nM, Flp-In T-REx 293 cells expressing h5-HT2A, peak calcium flux) was 5.2 nM; in assay [2] (read-out: EC50 nM, Flp-In T-REx 293 cells expressing h5-HT2C, peak calcium flux) it was 182 nM.

For the origin of these results see patent US20240043382A1, “MODIFIED INDOLE ALKALOIDS FOR THERAPEUTIC USES” (priority 2020, published 2024).
